Biological target: human CD47 on cells (human) (UniProt Q08722)
Experiment: flow cytometry on human erythrocytes

- EC50: 1.95 µg/mL
- plateau: 892
Substance: positive control antibody Hu5F9

From patent publication US20230167192A1 (SUZHOU ZELGEN BIOPHARMACEUTICALS, published 2023)
